Earlier results, collected in US20210137911A1, “NOVEL CHRONOTHERAPY BASED ON CIRCADIAN RHYTHMS” (THE TRUSTEES OF THE UNIVERSITY OF PENNSYLVANIA, priority 2014, published 2021).
Like-named read-outs stand apart in the source and are kept apart here. This is a selection: effects in other tests are not listed, and their absence says nothing.

Compound	½ Life (in vivo)	½ Life (half-life of top selling therapeutic compounds (Table 1))
CCC(=O)N(c1ccccc1)C1(COC)CCN(CCc2cccs2)CC1	4.416 h	
CCC(=O)N(c1ccccc1)C1(C(=O)OC)CCN(CCC(=O)OC)CC1	0.016 h	
CCC(=O)N(c1ccccc1)C1(COC)CCN(CCn2nnn(CC)c2=O)CC1		1.5 h
